The list shows a part of the results, in another mix than the full data. Some tests of the compounds listed are not included; inactive here does not mean inactive elsewhere. Calls of active or inactive are those of the source.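 How the source made its calls: active means inhibition above 50%; inactive means the rest.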
Target: Heat shock protein HSP 90-alpha (Homo sapiens) (UniProt P07900)
Test: Hsp90 geldanamycin-site probe displacement – cell lysate, fluorescence polarization, NCI-N417 lysate, primary screen (AID 429);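 further: 0% = tracer plus lysate wells and 100% = tracer alone without lysate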
Conditions: NCI-N417 lysate Hsp90, Cy3B-geldanamycin FP displacement; at 30 µM; active compounds read high

**Q.** O=C(OC1CN2CCC1CC2)C(CO)(c1ccccc1)c1ccccc1 (configuration not stated) was tested. Which inhibition did it give?
**A.** The inhibition was inactive: -6.31%.

**Q.** CN(C)c1cccc(C(=O)NCC2(N(C)C)CCCCC2)c1 was tested. Which inhibition did it give?
**A.** Its inhibition is inactive: -1.22%.
